Values of other authors, collected in paper PMC7385036, “An allosteric pocket for inhibition of bacterial Enzyme I identified by NMR-based fragment screening” (Journal of Structural Biology: X, 2020).

Target: EIC
Conditions: read-out: equilibrium dissociation constant for the EIC interaction; ref Venditti et al., 2013; cited from earlier work

For α-ketoglutarate, the Kd is listed as about 2000 µM.
